Like-named read-outs stand apart in the source and are kept apart here.
System: naturally-occurring algae from water samples of the Clinch River
Details: 10 μM DCMU, 0° C.

## CN(C)C(=O)Nc1ccc(Cl)c(Cl)c1
2 min after exposure
  Percentage (%) decrease in photochemical yield: −8.87%
10 min after exposure
  Percentage (%) decrease in photochemical yield: −19.43%
15 min after exposure
  Percentage (%) decrease in photochemical yield: −22.83%

From patent US7591979B2 (priority 2003, dated 2009)
